Biological target: T1, Escherichia coli single stranded DNA binding protein (SSB), wild-type tetramer (E. coli), P0AGE0
T1 chain: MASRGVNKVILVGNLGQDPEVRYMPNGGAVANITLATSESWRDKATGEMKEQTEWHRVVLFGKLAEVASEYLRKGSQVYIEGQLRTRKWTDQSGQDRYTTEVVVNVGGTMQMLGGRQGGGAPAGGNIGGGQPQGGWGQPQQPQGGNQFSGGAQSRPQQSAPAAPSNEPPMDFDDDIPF
Test: AUC; sedimentation velocity, 42 000 rpm, 25°C; SSB construct 0.35 μM tetramer alone and with 3.5 μM RecO (2.5 molar excess per C-terminus); buffer BTP pH 7.0, 200 mM NaCl
Details: remark: other sources report otherwise

stoichiometry N: 4
B1: Escherichia coli single stranded DNA binding protein (SSB), wild-type tetramer, P0AGE0 1-178 (natural protein)
chain: T1 chain

Source: article PMC7145534, “Are the intrinsically disordered linkers involved in SSB binding to accessory proteins?” (Nucleic Acids Research, 2019)
